The target of this experiment is JAK1 (Homo sapiens (Human), UniProt P23458). The experiment in a line: JAK1 inhibition assay. Format: biochemical.

Sequences of proteins named here, by UniProt entry; tags and fusion partners are left off. Residues count along the entry.
UniProt P23458, 850-1154: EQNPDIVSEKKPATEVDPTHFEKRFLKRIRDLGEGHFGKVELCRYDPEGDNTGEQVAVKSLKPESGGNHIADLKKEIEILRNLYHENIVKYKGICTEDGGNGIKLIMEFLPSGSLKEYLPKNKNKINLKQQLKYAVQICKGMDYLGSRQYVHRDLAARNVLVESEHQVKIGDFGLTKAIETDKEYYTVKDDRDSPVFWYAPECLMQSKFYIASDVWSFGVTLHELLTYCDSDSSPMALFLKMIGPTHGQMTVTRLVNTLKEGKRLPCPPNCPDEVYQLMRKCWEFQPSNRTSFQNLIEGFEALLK

Molecules are shown by their SMILES. Several values for one entry are separate records, joined by “and”; a condition that tells them apart may be missing. Equal values may be shown once.

The IC50 is the concentration needed to halve the response being measured.

Turning to `O=C(Nc1nc2cccc(-c3ccc(CN4CCOCC4)cc3)n2n1)C1CC1` [Compound 2, N-(5-(4-(morpholinomethyl)phenyl)-[1,2,4]triazolo[1,5-a]pyridin-2-yl)cyclopropanecarboxamide], the IC50 was 50.9 nM and 52.1 nM.

(Values after patent US8563545B2, “Compound useful for the treatment of degenerative and inflammatory diseases” (Galapagos NV, priority 2009, dated 2013).)
